Laboratory results taken from US9192667B2, “Method of treating cancer by administering CSF-1R antibodies and a TLR9 agonist” (Hoffmann-La Roche Inc., priority 2013, dated 2015).
Residue numbers refer to the chain shown, from its start. “Also recorded” adds a separate entry of the source. One block for each molecule: values may come before it.

Protein sequences, listed by entry. Tags and fused reporters are not part of them. Chains listed by the source or under a name are the forms on record and can include a tag or linker. Residues count along the entry.
UniProt P07333, with tags, fused parts or gaps DEL295-399: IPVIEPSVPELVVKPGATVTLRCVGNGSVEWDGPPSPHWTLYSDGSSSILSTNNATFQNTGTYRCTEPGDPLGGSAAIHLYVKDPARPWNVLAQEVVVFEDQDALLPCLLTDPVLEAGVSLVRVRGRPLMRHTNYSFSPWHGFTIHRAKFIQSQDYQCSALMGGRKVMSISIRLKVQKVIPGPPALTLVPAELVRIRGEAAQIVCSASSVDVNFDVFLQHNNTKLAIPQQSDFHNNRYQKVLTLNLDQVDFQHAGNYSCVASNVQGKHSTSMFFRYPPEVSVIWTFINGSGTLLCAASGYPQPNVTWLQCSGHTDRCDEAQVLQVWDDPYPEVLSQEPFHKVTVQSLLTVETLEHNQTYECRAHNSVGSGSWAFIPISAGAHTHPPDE
UniProt P07333, 20-311: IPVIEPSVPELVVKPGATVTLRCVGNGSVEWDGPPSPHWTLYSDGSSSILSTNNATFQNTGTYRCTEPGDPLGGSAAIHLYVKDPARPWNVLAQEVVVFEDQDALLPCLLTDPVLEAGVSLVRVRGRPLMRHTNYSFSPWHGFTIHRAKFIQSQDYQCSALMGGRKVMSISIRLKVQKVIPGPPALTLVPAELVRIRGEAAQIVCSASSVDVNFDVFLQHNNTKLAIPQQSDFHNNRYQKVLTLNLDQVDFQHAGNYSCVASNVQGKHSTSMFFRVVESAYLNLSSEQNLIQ
UniProt P07333, 20-512: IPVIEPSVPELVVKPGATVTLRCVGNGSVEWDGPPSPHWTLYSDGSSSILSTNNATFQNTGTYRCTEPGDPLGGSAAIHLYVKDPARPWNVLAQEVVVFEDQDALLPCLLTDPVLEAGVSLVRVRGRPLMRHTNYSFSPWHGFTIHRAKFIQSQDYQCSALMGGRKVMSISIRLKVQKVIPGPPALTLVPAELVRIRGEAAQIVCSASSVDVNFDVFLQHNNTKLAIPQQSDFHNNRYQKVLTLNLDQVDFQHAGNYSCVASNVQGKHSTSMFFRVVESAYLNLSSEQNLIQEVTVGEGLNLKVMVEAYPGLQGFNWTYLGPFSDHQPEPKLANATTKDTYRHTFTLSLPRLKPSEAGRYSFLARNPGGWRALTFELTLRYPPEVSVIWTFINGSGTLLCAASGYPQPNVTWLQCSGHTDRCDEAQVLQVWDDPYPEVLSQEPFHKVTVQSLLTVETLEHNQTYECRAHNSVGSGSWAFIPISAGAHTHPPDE

Columns and labels:
[1] = biological target: T1, human CSF-1R fragment delD4 (Homo sapiens, UniProt P07333, DEL295-399); experiment: SPR binding of anti-CSF-1R antibodies to immobilized human CSF-1R fragment delD4; conditions: Biacore
T1 construct: PreScission site + human IgG1 Fc (aa100-330) + 6xHis (C, cleaved yes); made in house; host or cells: Hek293 FreeStyle suspension cells, transient transfection
Method: (§1) The “binding to human CSF-1R fragment delD4 (SEQ ID NO: 65) and to human CSF-1R Extracellular Domain (SEQ ID NO: 64)” as used herein is measured by a Surface Plasmon Resonance assay (Biacore assay) as described in Example 4. The human CSF-1R fragment delD4 (SEQ ID NO: 65) or human CSF-1R Extracellular Domain (SEQ ID NO: 64), respectively, are captured to the surface (each to a separate surface) and the test antibodies were added (each in a separate measurement) and the respective binding signals (Response Units (RU)) were determined. Reference signals (blank surface) were subtracted. If signals of nonbinding test antibodies were slightly below 0 the values were set as 0. Then the ratio of the respective binding signals (binding signal (RU) to human CSF-1R fragment delD4/binding signal (RU) to human CSF-1R Extracellular Domain (CSF-1R-ECD)) is determined. The antibodies according to the invention have a ratio of the binding signals (RU(delD4)/RU(CSF-1R-ECD) of 1:50 or lower, preferably of 1:100 or lower (the lower included end is 0 (e.g. if the RU is 0, then the ratio is 0:50 or 0:100)).
(§2) Determination of the Binding of Anti-CSF-1R Antibodies to Human CSF-1R Fragment delD4 and to Human CSF-1R Extracellular Domain (CSF-1R-ECD) (Binding Signals as Response Units (RU):
(§3) Instrument: Biacore T100 (GE Healthcare)
(§4) Software: • T100 Control, Version 2.0.1 • T100 Evaluation, Version 2.0.2 Assay format Chip: CM5 Temperature: 25° C.
(§5) CSF-1R fragments were immobilized via amine coupling. To compare the binding of different anti-CSF-1R antibodies according to the invention one concentration of the test antibody was injected. Anti CSF-1R Mab3291 (R&D-Systems) and SC 2-4A5 (Santa Cruz Biotechnology, US—see also Sherr, C. J. et al., Blood 73 (1989) 1786-1793), was used as reference control, anti-CCR5 m<CCR5>Pz03.1C5 (deposited as DSM ACC 2683 on 18 Aug. 2004 at DSMZ) as negative control, all under the same conditions as the anti-CSF-1R antibodies according to the invention.
(§6) Standard amine coupling according to the manufacturer's instructions: running buffer: PBS-T (Roche: 11 666 789+0.05% Tween20: 11 332 465), activation by mixture of EDC/NHS, injection of human CSF-1R fragment delD4 (comprising the extracellular subdomains D1-D3 and D5) (SEQ ID NO: 65) and human CSF-1R Extracellular Domain (CSF-1R-ECD) (comprising the extracellular subdomains D1-D5) (SEQ ID NO: 64) for 600 seconds at flow rate 10 μl/min; diluted in coupling buffer NaAc, pH 5.0, c=10 μg/mL; finally remaining activated carboxyl groups were blocked by injection of 1 M Ethanolamin.
(§7) Binding was measured at a flow rate of 30 μL/min by one injection of the analyte with concentration c=10 nM. […]
(§8) Signals were measured by a report point 10 seconds after end of injection.

[2] = biological target: T2, human CSF-1R fragment D1-D3 (Homo sapiens, UniProt P07333); experiment: SPR binding of anti-CSF-1R antibodies to human CSF-1R fragment D1-D3
T2 construct: His-Avitag; made in house
Method: The term “binding to human CSF-1R fragment D1-D3” refers to a binding affinity determination by a Surface Plasmon Resonance assay (Biacore assay). The test antibody is captured to the surface and the human CSF-1R fragment D1-D3 (SEQ ID NO: 66) was added and the respective binding affinities were determined.
as §3
Software: • T100 Control, Version 1.1.11 • B3000 Evaluation, Version 4.01 • Scrubber, Version 2.0a Assay format Chip: CM5-Chip Antibodies against CSF-1R were captured via amine coupled capture molecules. Using the single cycle kinetics five increasing concentrations of human CSF-1R fragment D1-D3 (SEQ ID NO: 66) were injected. Human CSF-1R fragment D1-D3 was subcloned into pCMV-presS-HisAvitag expression vector.
Anti CSF-1R SC 2-4A5 (Santa Cruz Biotechnology, US; Sherr, C. J. et al., Blood 73 (1989) 1786-1793) which inhibits the ligand-receptor interaction, and Mab 3291 (R&D-Systems) were used as reference controls.
Capture molecules: Anti mouse Fcγ antibodies (from goat, Jackson Immuno Research JIR115-005-071) for antibodies according to the invention and the R&D-Systems control Mab 3291 and Anti rat Fcγ antibodies (from goat, Jackson Immuno Research JIR112-005-071) for the reference control anti CSF-1R SC 2-4A5.
Standard amine coupling according to the manufacturer's instructions: running buffer: HBS—N buffer, activation by mixture of EDC/NHS, aim for ligand density of 2000 RU; the capture-Abs were diluted in coupling buffer NaAc, pH 4.5, c=10 mg/mL; finally remaining activated carboxyl groups were blocked by injection of 1 M Ethanolamin. […]
Single Cycle Kinetics was measured at a flow rate of 30 μL/min by five consecutive injections of the analyte with concentrations, c=7.8, 31.25, 125, 500 and 2000 nM, without regeneration. […]
Kinetic parameters were calculated by using the usual double referencing (control reference: binding of analyte to capture molecule; Flow Cell: subdomain CSF-1R concentration “0” as Blank) and calculation with model ‘titration kinetics 1:1 binding with draft’.

[3] = biological target: T3, human CSF-1R Extracellular Domain (CSF-1R-ECD) (Homo sapiens, UniProt P07333); experiment: SPR binding of anti-CSF-1R antibodies to immobilized human CSF-1R Extracellular Domain; conditions: Biacore, immobilized CSF-1R-ECD
T3 construct: PreScission site + human IgG1 Fc (aa100-330) + 6xHis (C); made in house; host or cells: Hek293 FreeStyle suspension cells, transient transfection
Method: as §1, §2, §3, §4, §5, §6, §7, §8

[4] = biological target: T3, human CSF-1R Extracellular Domain (CSF-1R-ECD); experiment: SPR binding affinity of anti-CSF-1R antibodies to human CSF-1R; conditions: SPR 35° C.
Method: Instrument: BIACORE® A100
Human CSF-1R Extracellular Domain (CSF-1R-ECD) (comprising the extracellular subdomains D1-D5) (SEQ ID NO: 64) (R&D-Systems 329-MR or subcloned pCMV-presS-HisAvitag-hCSF-1R-ECD) was added in various concentrations in solution. Association was measured by an CSF-1R-injection of 1.5 minutes at 35° C.; dissociation was measured by washing the chip surface with buffer for 10 minutes at 35° C. For calculation of kinetic parameters the Langmuir 1:1 model was used.

- binding to human CSF-1R fragment D1-D3 [2]: showed no binding
- binding to CSF-1R-ECD [3]: showed binding
- ka [4]: 177000 M⁻¹ s⁻¹
- kd [4]: 5.18e-05 s⁻¹
B1: Mab 2F11: murine monoclonal anti-CSF-1R antibody; heavy chain variable domain SEQ ID NO: 7, light chain variable domain SEQ ID NO: 8 (antibody, listed as Mus musculus, V domains shown)
VH: QVQLKESGPGLVAPSQSLSITCTVSGFSLTTYDISWIRQSPGKGLEWLGVIWTDGGTNYNSPFMSRLSIRKDNSKSQVFLKMNRLQTDDTAIYYCVRDQRLYFDVWGAGTTVTVSS
VL: NIVMTQSPKSMSMSVGERVTLNCKASEDVNTYVSWYQQQPEQSPKLLIYGASNRYTGVPDRFTGGGSTTDFTLTISSVQAEDLADYFCGQSFSYPTFGTGTKLEIK
- binding to CSF-1R fragment delD4 [1]: no binding was detected; also recorded: do not bind; also recorded: did not bind

- binding to human CSF-1R fragment D1-D3 [2]: showed no binding
- binding to CSF-1R-ECD [3]: showed binding
- ka [4]: 175000 M⁻¹ s⁻¹
- kd [4]: 6.28e-05 s⁻¹
B2: Mab 1G10: murine monoclonal anti-CSF-1R antibody; heavy chain variable domain SEQ ID NO: 75, light chain variable domain SEQ ID NO: 76 (antibody, listed as Mus musculus, V domains shown)
VH: B1 VH with Q1R, T31S, T53S, D54G, S68R, R70S, N73D, K75R, M82V, Q99L
VL: KIVMTQSPKSMSVSVGERVSLSCKASEDVGTYVSWYQQKPEQSPKLLIYGSSNRYTGVPDRFTGSGSATDFTLTISSVQAEDLADYSCGQSFTYPTFGTGTKLEIK
- binding to CSF-1R fragment delD4 [1]: no binding was detected; also recorded: did not bind

- binding to CSF-1R-ECD [3]: showed binding
- ka [4]: 147000 M⁻¹ s⁻¹
- kd [4]: 3.12e-05 s⁻¹
B3: Mab 2H7: murine monoclonal anti-CSF-1R antibody; heavy chain variable domain SEQ ID NO: 83, light chain variable domain SEQ ID NO: 84 (antibody, listed as Mus musculus, V domains shown)
VH: QVQLKESGPGLVAPSKSLSITCTVSGSSLDSFDISWIRQPPGKGLEWLGVIWTGGGTNYNSGFMSRLRISKDNSKSQVFLKMSSLQSDDTAIYYCVRDPRLYFDVWGAGTTVTVSS
VL: B1 VL with N22S, N30V, Q39K, G65S, T68A, V78I, F87Y, S91T
- binding to CSF-1R fragment delD4 [1]: no binding was detected; also recorded: did not bind

- binding to human CSF-1R fragment D1-D3 [2]: showed no binding
- binding to CSF-1R-ECD [3]: showed binding
- ka [4]: 152000 M⁻¹ s⁻¹
- kd [4]: 2.97e-05 s⁻¹
B4: Mab 2E10: murine monoclonal anti-CSF-1R antibody; heavy chain variable domain SEQ ID NO: 15, light chain variable domain SEQ ID NO: 16 (antibody, listed as Mus musculus, V domains shown)
VH: B3 VH with P40S, S70T, F79L, S83N
VL: B1 VL with N22S, N30V, Q39K, E41D, G65S, T68A, F87Y, S91T
- binding to CSF-1R fragment delD4 [1]: no binding was detected; also recorded: do not bind; also recorded: did not bind
